Results from patent publication US20230312524A1, “ALPHA1A-ADRENERGIC RECEPTOR AGONISTS AND METHODS OF USE” (CuraSen Therapeutics, Inc., priority 2020, published 2023).

Amino acid sequences for entries named in this document (tags omitted).
UniProt P35348, whole entry: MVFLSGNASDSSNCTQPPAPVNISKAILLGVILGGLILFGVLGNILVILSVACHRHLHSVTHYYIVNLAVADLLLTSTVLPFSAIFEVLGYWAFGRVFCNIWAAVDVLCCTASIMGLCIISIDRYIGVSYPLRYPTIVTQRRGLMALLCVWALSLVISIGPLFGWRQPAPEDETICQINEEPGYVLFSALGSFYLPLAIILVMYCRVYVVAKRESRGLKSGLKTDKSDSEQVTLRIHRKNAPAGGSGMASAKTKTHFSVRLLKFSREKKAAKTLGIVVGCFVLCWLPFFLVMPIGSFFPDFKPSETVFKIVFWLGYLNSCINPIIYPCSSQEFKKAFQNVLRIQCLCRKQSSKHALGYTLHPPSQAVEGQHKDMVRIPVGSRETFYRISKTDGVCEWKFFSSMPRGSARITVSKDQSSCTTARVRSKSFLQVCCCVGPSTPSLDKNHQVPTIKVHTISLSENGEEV

Target: α1A-ARS (Homo sapiens, UniProt P35348)
Experiment: Calcium flux assay (Calcium 6 dye) in cells expressing an α1-AR
Details: for Average Emax: maximum effect relative to full agonist epinephrine; for Average PEC50: mean of at least three experiments

| Structure (SMILES) | Average Emax | Average PEC50 |
| --- | --- | --- |
| Clc1cccc(CC2=NCCN2)c1C1CCCC1 | B (B = 21-60%) | C (C ≤ 6.00) |
| Cc1cc(CC2=NCCN2)cc(OC(F)(F)F)c1 | A (A > 61%) | B (B = 8.00-6.01) |
